High-throughput results: PubChem, Broad Institute
In the library only some 0.73% were active in any assay of this set; here they are far more common.
E-sel inducer – E-selectin induction on HUVECs; P16581; HUVEC E-selectin immunofluorescence imaging; normalized: neutral wells 0, TNF-alpha wells 100; activation, % at 7.58 µM; 0.37% of 260,000 active;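 active means mean E-selectin-positive cell signal at least 10% of the positive control, reached in at least 60% of replicates, without over 20% cell loss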
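System: HUVEC / Compound: single concentration / Signal: immunofluorescence imaging / Read-out: percent E-selectin-positive cells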
RAD54 inh – RAD54 (human) branch migration inhibition | RAD54 Holliday junction branch migration, FAM/BHQ fluorescence | inhibition, % at 10.4 µM | 0.14% of 360,000 active;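 active means mean normalized replicate activity at least 40 and at least half of replicates scoring 40 or more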;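 further: 0% = median of neutral control wells and 100% = median of positive control wells; inhibitors cause a drop in the FAM fluorescence signal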
RAD52 inh – inhibitors of human RAD52 DNA annealing; inhibition, % at 18.7 µM; P43351; 0.46% of 360,000 active; AID 651710; recombinant RAD52 DNA annealing, FRET fluorescence;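 active means every replicate showing at least 50% inhibition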
XiGFP reactiv – activators of X-chromosome reactivation in mouse fibroblasts; XiGFP mouse fibroblasts, % GFP-positive cells imaging, 3 d; cells co-treated with 5-aza-dC sensitizer; scaled so ellipticine positive control = 100%; activation, % at 7.58 µM; 0.055% of 360,000 active; AID 743238;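 active means mean normalized replicate activation at least 10% and every replicate at or above 10%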;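 further: 0% = median of on-plate neutral control wells and 100% = ellipticine 6 µM median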
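Material: XiGFP fibroblasts, SV40-immortalized. Buffer or medium: DMEM plus 5-aza-dC sensitizer. Compound: single concentration per compound, delivered by pin transfer. Times: 3 days compound exposure. Controls: ellipticine 6 µM.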
Yeast UUG start – alters start codon recognition fidelity in yeast; S. cerevisiae UUG-firefly luciferase reporter, luminescence/redox ratio; activity score, % at 18.7 µM; actives 0.13% (n = 350,000); AID 602363;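 active = replicate mean at a twofold rise or more, about +100% in these data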;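 also: firefly luciferase made from a UUG start codon reports start codon fidelity; reporter light over untreated wells divided by growth signal over untreated wells; some hits fall short of that in this replicate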
* marks the source's active call; other numbers are inactive results.

Cc1ccc(OCCC(=O)OCC(=O)Nc2ccc(C)c(S(=O)(=O)N3CCOCC3)c2)cc1 was read as E-sel inducer 0, RAD54 inh -11, RAD52 inh -7, XiGFP reactiv 0 and Yeast UUG start 0.
`Cc1ccc(NC(=O)COc2ccc(-c3nnco3)cc2)cc1S(=O)(=O)N1CCOCC1` gave E-sel inducer 0, RAD52 inh -11 and XiGFP reactiv 23*.
Screening Cc1noc(C)c1C(=O)N(C)C[C@@H]1OCc2ccccc2-c2ccccc2C(=O)N([C@@H](C)CO)C[C@@H]1C returned E-sel inducer 0, RAD54 inh -1, RAD52 inh 0 and XiGFP reactiv 1.
Screening CCOc1ccccc1N(CC(=O)NCCSc1ccccn1)S(=O)(=O)c1ccccc1 returned E-sel inducer 1, RAD54 inh -3, RAD52 inh -11, XiGFP reactiv 0 and Yeast UUG start 4.
Screening COc1ccccc1N(CC(=O)NCCSc1ccccn1)S(=O)(=O)c1ccccc1 returned E-sel inducer 37*, RAD54 inh -5, RAD52 inh -8, XiGFP reactiv 0 and Yeast UUG start -6.
For C[C@H]1CCCCO[C@H](CN(C)C(=O)Nc2ccc(F)cc2)[C@@H](C)CN([C@@H](C)CO)C(=O)c2cc(NS(=O)(=O)c3cn(C)cn3)ccc2O1 the results were E-sel inducer 0, RAD54 inh 4, RAD52 inh -6, XiGFP reactiv 0 and Yeast UUG start 1.
Screening O=C(Nc1ccccc1)N1CCCCN2[C@H](CO)[C@H](c3ccc(-c4ccccc4F)cc3)[C@@H]2C1 returned E-sel inducer -1, RAD54 inh 12, RAD52 inh -5, XiGFP reactiv 0 and Yeast UUG start 7.
Screening O=C(Nc1ccc(F)cc1)N1CCCCN2[C@H](C1)[C@@H](c1ccc(-c3ccccc3F)cc1)[C@@H]2CO returned RAD54 inh 2, RAD52 inh 55* and Yeast UUG start -2.
For O=C(Nc1ccccc1)N1CCCCN2[C@H](CO)[C@H](c3ccc(-c4ccccc4F)cc3)[C@H]2C1 the results were E-sel inducer 0, RAD54 inh 3, RAD52 inh 50*, XiGFP reactiv 0 and Yeast UUG start 5.
`O=[N+]([O-])c1ccc(Nc2ccccc2)c2nonc12` gave E-sel inducer -2, RAD54 inh -18, RAD52 inh -49, XiGFP reactiv 0 and Yeast UUG start -14.
For O=[N+]([O-])c1ccc(Sc2cccc[n+]2[O-])c2nonc12 the results were E-sel inducer 0, RAD52 inh -78 and XiGFP reactiv 59*.
`O=c1oc2ccccc2cc1-c1nc2c(s1)CCc1ccccc1-2` gave XiGFP reactiv 0.
For O=c1oc2cc(O)ccc2cc1-c1nc2c(s1)CCc1ccccc1-2 the results were XiGFP reactiv 95*.
`COc1ccccc1/C=C/C(=O)OCCCN(C)C` gave RAD52 inh 3 and XiGFP reactiv 71*.
`COc1ccc(/C=C/C(=O)OCCCN(C)C)cc1` gave RAD52 inh -12 and XiGFP reactiv 0.
For COc1ccc(CN(C)C[C@H]2OCCCC[C@H](C)Oc3ccc(NC(=O)c4ccccc4)cc3C(=O)N([C@H](C)CO)C[C@H]2C)cc1 the results were E-sel inducer 0, RAD54 inh 2, RAD52 inh 26, XiGFP reactiv 0 and Yeast UUG start 6.
`CO[C@@H](CN(C)S(=O)(=O)c1ccc(F)cc1)[C@@H](C)CN(Cc1ccccc1Cl)[C@H](C)CO` gave E-sel inducer 1, RAD54 inh -7, RAD52 inh -13 and XiGFP reactiv 0.
Cc1ccc(C(=O)Nc2nc(-c3ccccn3)cs2)o1 was read as RAD52 inh -29 and XiGFP reactiv 0.
`CCc1cc(C(=O)Nc2nc(-c3ccccn3)cs2)sc1C` gave E-sel inducer 29*, RAD54 inh 2, RAD52 inh -3, XiGFP reactiv 0 and Yeast UUG start -26.
`CC(C)NC(=O)N[C@H]1CC[C@H](CCNC(=O)C2CCOCC2)O[C@H]1CO` gave E-sel inducer 0, RAD54 inh -5, RAD52 inh 5, XiGFP reactiv 0 and Yeast UUG start -20.
For COCCNC(=O)C[C@@H]1CC[C@H]2[C@@H](COC[C@H](O)CN2Cc2cccc(-c3ccncc3)c2)O1 the results were E-sel inducer 0, RAD54 inh -11, RAD52 inh 7 and XiGFP reactiv 0.

Pulled one by one from above, two records:
For COc1ccc(CN(C)C[C@H]2OCCCC[C@H](C)Oc3ccc(NC(=O)c4ccccc4)cc3C(=O)N([C@H](C)CO)C[C@H]2C)cc1 the results were E-sel inducer 0, RAD54 inh 2, RAD52 inh 26, XiGFP reactiv 0 and Yeast UUG start 6.
`COc1ccc(/C=C/C(=O)OCCCN(C)C)cc1` gave RAD52 inh -12 and XiGFP reactiv 0.
